In the test the target is APJ receptor (Homo sapiens, UniProt P35414). As to the kind of experiment: Intracellular cAMP accumulation assay (APJ hcAMP, HTRF). Type of test: cell-based. The protocol:
Intracellular cAMP Accumulation Assay
HEK293 cells stably expressing human APJ receptor were used to assess the activity of compounds. Cultured cells were detached and resuspended in the cAMP Homogeneous Time-Resolved Fluorescence (HTRF) assay buffer (Cisbio cat; #62AM4PEJ). The assay was performed in 384-well assay plates (Perkin-Elmer; cat #6008289) according to assay protocol provided by the manufacturer. Serial dilutions of a compound together with assay buffer containing […] IBMX and 2 μM forskolin were added to each well containing 5,000 cells and incubated for 30 minutes at room temperature. Subsequently, cAMP D2 reagent was added in the lysis buffer followed by the EuK antibody (Cisbio; cat #62AM4PEJ) and incubated for 60 min. The fluorescence emission ratio was measured using fluorometer. The intracellular cAMP concentrations (compound-stimulated inhibition of forskolin-mediated cAMP production) were calculated by extrapolation from a standard curve using known cAMP concentrations. The EC50 values were obtained by fitting the data to a sigmoidal concentration-response curve with variable slope. The maximal achievable inhibition of forskolin-induced cAMP levels (Ymax) for each compound was expressed as relative percentage of inhibition attained using pyroglutamated apelin-13 ((Pyrl)apelin-13) peptide, which was set to 100%.
The exemplified Examples disclosed below were tested in the APJ in vitro assays described above and were found having human APJ cyclic AMP (hcAMP) activity. Table 1 lists hcAMP EC50 values measured for the following examples. Ranges are as followε: A=0.0-10 nM; B=10.01-100 nM; C=101-500 nM.

Protein sequences, listed by entry. Tags and fused reporters are not part of them.
UniProt P35414, whole entry: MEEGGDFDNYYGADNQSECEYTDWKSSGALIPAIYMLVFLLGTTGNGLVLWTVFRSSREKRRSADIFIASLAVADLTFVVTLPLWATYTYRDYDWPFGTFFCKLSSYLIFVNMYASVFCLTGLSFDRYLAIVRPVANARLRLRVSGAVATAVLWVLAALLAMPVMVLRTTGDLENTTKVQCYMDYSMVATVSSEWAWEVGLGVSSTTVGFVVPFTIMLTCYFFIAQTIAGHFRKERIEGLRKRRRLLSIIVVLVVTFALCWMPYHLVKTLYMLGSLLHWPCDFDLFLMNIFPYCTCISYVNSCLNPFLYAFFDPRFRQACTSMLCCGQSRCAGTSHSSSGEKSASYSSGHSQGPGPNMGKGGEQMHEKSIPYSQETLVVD

Where [1] appears, read: read-out: APJ cAMP Human EC50, human APJ, cAMP, potency range class.
The mark [2] stands for this setting: read-out: APJ hcAMP EC50, Table 1, HEK293 cells stably expressing human APJ receptor, inhibition of forskolin-mediated cAMP production.

Molecules are shown by their SMILES. Like-named read-outs stand apart in the source and are kept apart here. A value given as a limit tells only on which side of the number the result lay.

Take `CCCC(NC(=O)c1ccc(-c2c(Cl)cccc2-c2nc3ccccc3[nH]2)c(C(=O)O)c1)c1ccc(F)cc1` (single isomer, unassigned) [Example 228]: the EC50 is under 0.01 µM under setting [1] and under 0.01 µM under setting [2].
For `CCCC(NC(=O)c1ccc(-c2c(Cl)cccc2-c2nc3ccccc3[nH]2)c(C(=O)O)c1)c1ccncc1` (stereo not drawn), the EC50 was under 0.01 µM under setting [1] and under 0.01 µM under setting [2].
Regarding `CCCC(NC(=O)c1ccc(-c2c(Cl)cccc2-c2nc3ccccc3[nH]2)c(C(=O)O)c1)c1ccc(Cl)cc1` (stereo not drawn), the EC50 is under 0.01 µM under setting [1] and under 0.01 µM under setting [2].

The values are drawn from patent US11498903B2 (BRISTOL-MYERS SQUIBB COMPANY, priority 2017, dated 2022).
